The values that follow come from ChEMBL document CHEMBL4024791, “Identification of Morpholino-2H-pyrido[3,2-b][1,4]oxazin-3(4H)-ones as Nonsteroidal Mineralocorticoid Antagonists” (J Med Chem, 2018).

For the test, the target named is T1, Mineralocorticoid receptor (Homo sapiens, UniProt P08235).
T1 sequence (P08235 whole entry): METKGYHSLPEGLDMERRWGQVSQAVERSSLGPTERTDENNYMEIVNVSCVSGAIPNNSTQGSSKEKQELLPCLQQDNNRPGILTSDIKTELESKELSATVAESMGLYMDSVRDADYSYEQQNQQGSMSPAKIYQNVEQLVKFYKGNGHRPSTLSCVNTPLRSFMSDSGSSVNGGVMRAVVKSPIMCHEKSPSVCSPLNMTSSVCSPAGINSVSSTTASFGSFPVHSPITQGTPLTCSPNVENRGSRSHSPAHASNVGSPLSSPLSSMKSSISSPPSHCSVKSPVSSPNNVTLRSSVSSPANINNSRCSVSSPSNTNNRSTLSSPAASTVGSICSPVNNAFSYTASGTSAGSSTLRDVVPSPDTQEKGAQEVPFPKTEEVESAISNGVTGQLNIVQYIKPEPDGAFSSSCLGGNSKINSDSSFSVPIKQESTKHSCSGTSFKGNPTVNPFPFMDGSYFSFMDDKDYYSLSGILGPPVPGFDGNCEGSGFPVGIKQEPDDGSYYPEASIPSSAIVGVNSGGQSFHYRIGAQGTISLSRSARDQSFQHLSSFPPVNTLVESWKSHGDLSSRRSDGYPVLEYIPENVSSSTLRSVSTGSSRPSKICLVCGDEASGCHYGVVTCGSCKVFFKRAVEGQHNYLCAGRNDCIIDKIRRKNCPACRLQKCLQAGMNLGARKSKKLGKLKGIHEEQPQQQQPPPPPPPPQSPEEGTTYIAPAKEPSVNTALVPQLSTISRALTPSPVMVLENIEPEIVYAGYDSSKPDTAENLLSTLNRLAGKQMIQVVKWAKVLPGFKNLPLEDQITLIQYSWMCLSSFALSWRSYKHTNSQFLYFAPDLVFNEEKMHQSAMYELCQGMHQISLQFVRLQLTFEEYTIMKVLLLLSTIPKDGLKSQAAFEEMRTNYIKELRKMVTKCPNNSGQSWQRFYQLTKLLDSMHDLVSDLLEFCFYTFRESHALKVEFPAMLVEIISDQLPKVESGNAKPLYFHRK

The compound `C[C@@H]1CN(c2ccc3c(n2)NC(=O)CO3)[C@H](c2ccc(F)cc2)CO1` returned a half-inhibitory concentration (IC50) of 39 nM.

With `C[C@@H]1CN(c2ccc3c(n2)NC(=O)CO3)[C@H](c2cccc(F)c2)CO1`, the IC50 was 19 nM.

As usually defined, the IC50 is the concentration at which inhibition is half-maximal. Lower therefore signals greater potency.
